Laboratory results from PubChem BioAssay AID1745857 (National Center for Advancing Translational Sciences (NCATS), 2022).
Only a part is listed here, and it is no random draw. Some of these compounds have results that are not shown, active ones among them. Inconclusive results are not listed. Active and inactive are the calls of the source. Calls follow the shape of the full dose curve.

Test: Primary qHTS Assay for Foot and Mouth Disease Virus Antivirals against NCGC Sytravon and CBC Compound Libraries: Renilla Luciferase Signal; also: nearly all actives have a fitted effect of over 55% in size
Conditions: FMDV replicon cells; at 57.5 µM (top of the series)
% is scaled to controls: 0 for no effect and ±100 for the full control effect.

SMILES	activity change, negative = inhibition
Cc1cccc(C(=O)NCC2(N(C)C)CCCCC2)c1	inactive: -9.12%
COc1cc(C(=O)NCC2(N(C)C)CCCCC2)cc(OC)c1OC	inactive: 11.9%
CC(C)Oc1ccc(C(=O)NCC2(N(C)C)CCCCC2)cc1	inactive: -9.17%
COc1cccc(C(=O)NCC2(N3CCOCC3)CCCCC2)c1	inactive: -10.4%
CC(C)COc1ccc(C(=O)NCC2(N(C)C)CCCCC2)cc1	inactive: 4.89%
COc1ccc(C(=O)NCC2(N(C)C)CCCCC2)cc1Cl	inactive: -8.67%
CN(C)C1(CNC(=O)c2cccs2)CCCCC1	inactive: -0.455%
CCOc1cccc(C(=O)NCC2(N(C)C)CCCCC2)c1	inactive: -9.46%
O=C(NCC1(N2CCOCC2)CCCCC1)c1cc(=O)c2ccccc2o1	inactive: -2.64%
CN(C)C1(CNC(=O)c2ccccc2[N+](=O)[O-])CCCCC1	inactive: -10.8%
CCCCOc1ccccc1C(=O)NCC1(N(C)C)CCCCC1	inactive: -3.7%
CCOc1ccccc1C(=O)NCC1(N(C)C)CCCCC1	inactive: 0.574%
CN(C)C1(CNC(=O)c2cccc(Cl)c2)CCCCC1	inactive: -12.7%
CN(C)C1(CNC(=O)c2ccccc2F)CCCCC1	inactive: -14.3%
CC(CCN(CCCl)CCCl)c1ccccc1 (stereo not given)	inactive: -29.6%
